“And” between values parts separate entries of the source, which are not always exact repeats. Equal values may be shown once. The entries are a selection whose mix differs from that of the whole data set. Records with an inconclusive call do not appear. The source made the active and inactive calls. Rule for the calls, unless noted: active = hit-call score of the fitted dose curve at least 0.9, where 1 is the maximum; inactive = score below 0.9.
How the values were obtained:
[1] = CCTE_Shafer_MEA_dev_network_spike_peak: CCTE's Neural Network Formation Assay for Mean Number of Electrodes in Network Spike, Shafer Lab (AID 2284049);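 for AC50: fitted for loss of signal meaning fewer electrodes in network spikes than DMSO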
In short: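 Rat cortical primary culture, 1.5 x 10^5 cells/well, 48-well MEA (16 electrodes/well). Dosing day 0 through DIV 12, full media/compound exchange DIV 5, 9. AxIS adaptive spike detection; AUC over days 5/7/9/12; loss-of-signal vs DMSO.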

[2] = CCTE_Shafer_MEA_dev_spike_duration_mean: CCTE's Neural Network Formation Assay for Mean Spike Duration, Shafer Lab (AID 2284051);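 note: mean network spike duration pooled as area under curve over DIV 5 to 12 recordings; potency for a decrease in mean network spike duration versus DMSO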
In short: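 Spontaneous activity was recorded on days 5, 7, 9 and 12 from rat cortical cultures grown on microelectrode arrays and dosed continuously from day 0, with media and compound renewed after the DIV 5 and 9 recordings. Network-spike duration was collapsed by area under the curve.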

[3] = CCTE_Shafer_MEA_dev_network_spike_duration_std: CCTE's Neural Network Formation Assay for Standard Deviation of Network Spike Duration, Shafer Lab (AID 2284052);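 note: hits are decreases in network spike duration SD versus DMSO vehicle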
In short: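 Network spike duration variability was collapsed across recordings on days 5, 7, 9 and 12 by trapezoidal area-under-curve and fitted downward against DMSO. Cultures were rat cortical neurons on PEI-coated MEA plates, dosed continuously from plating, refed with compound DIV 5/9.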

[4] = CCTE_Shafer_MEA_dev_per_network_spike_spike_number_mean: CCTE's Neural Network Formation Assay for Mean Number of Spikes in a Network Spike, Shafer Lab (AID 2284053);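 for AC50: fitted as decrease in spikes per network spike relative to DMSO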
In short: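 Mean spike count within each network spike, taken in a 0.05 s window at its peak, was recorded on days 5, 7, 9 and 12 and integrated as trapezoidal area under the curve. Rat cortical cultures on MEA plates received continuous compound from day 0, refreshed at medium changes on DIV 5 and 9.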

[5] = CCTE_Shafer_MEA_dev_per_network_spike_spike_percent: CCTE's Neural Network Formation Assay for Percent of Spikes in a Network Spike, Shafer Lab (AID 2284054)
In short: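 Rat primary cortical cultures, 1.5 x 10^5 cells/well on MEA. Continuous compound exposure d0–12, medium/compound renewed DIV 5, 9. Network-spike spike % (0.05 s peak window), AUC over 4 recordings, DMSO baseline.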

[6] = CCTE_Shafer_MEA_dev_LDH: CCTE's Lactate Dehydrogenase Assay for Cytotoxicity in the Neural Network Formation Assay, Shafer Lab (AID 2284068; active = hit-call score of the fitted dose curve at least 0.9, where 1 is the maximum;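 note: exposure for twelve days from plating with re-dosing on DIV 5 and 9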)
In short: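 Primary rat cortical neurons were cultured on PEI-coated MEA plates and exposed from plating through day 12, with compound renewed at medium changes on DIV 5 and 9. LDH activity was read spectrophotometrically; loss of signal versus DMSO indicates reduced viability.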

[7] = CCTE_Shafer_MEA_acute_AB: CCTE's Alamar Blue Assay for Cytotoxicity in the Neural Acute Assay, Shafer Lab (AID 2284069; active = hit-call score of the fitted dose curve at least 0.9, where 1 is the maximum;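 note: active compounds lower the viability signal compared with DMSO wells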)
In short: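 Resazurin reduction (CellTiter Blue, 1:6 in fresh medium) read at ex 544/em 590 nm marks viability loss relative to DMSO. Cells: primary rat cortical neuron networks on microelectrode arrays, treated after baseline recording at 13 or 15 days in vitro.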

[8] = CCTE_Shafer_MEA_dev_AB: CCTE's Alamar Blue Assay for Cytotoxicity in the Neural Network Formation Assay, Shafer Lab (AID 2284083; active = hit-call score of the fitted dose curve at least 0.9, where 1 is the maximum;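 note: resazurin reduction fluorescence as viability of cultured neurons; twelve days of exposure from plating with re-dosing on DIV 5 and 9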)
In short: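 Resazurin fluorescence, relative to DMSO, gauges viability after twelve days of exposure that began at plating of rat cortical neurons (1.5 x 10^5 cells/well, 48-well MEA); treatment renewed with full medium exchange on DIV 5 and 9.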

[9] = CCTE_Shafer_MEA_acute_LDH: CCTE's Lactate Dehydrogenase Assay for Cytotoxicity in the Neural Acute Assay, Shafer Lab (AID 2284086; active = hit-call score of the fitted dose curve at least 0.9, where 1 is the maximum;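 note: active means LDH release rises above DMSO vehicle level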)
In short: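 Medium from rat cortical neuron MEA cultures sampled right after the 40 min compound-exposure recording; released LDH measured by absorbance at 490 nm. Analyzed as signal gain relative to DMSO.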

DIO2 (gene 1734) = experiment: CCTE_GLTED_hDIO2: CCTE's human Deiodinase 2 (DIO2) Inhibition Assay, Great Lakes Toxicology and Ecology Division (GLTED) Lab (AID 2284050; active = hit-call score of the fitted dose curve at least 0.9, where 1 is the maximum)
In short: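 Cell-free human DIO2 incubated 3 h with chemical; liberated iodide quantified by Sandell-Kolthoff absorbance. Triplicate plates; loss of signal fitted vs DMSO.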

Compound: CC(C)OP(=S)(OC(C)C)SCCNS(=O)(=O)c1ccccc1
- AC50 [1]: active: 50 µM and active: 11.8 µM
- AC50 [2]: active: 20 µM and active: 10.5 µM
- AC50 [3]: active: 10.8 µM and active: 9.46 µM
- AC50 [4]: active: 50 µM and active: 13.4 µM
- AC50 [5]: active: 11.2 µM and active: 24.3 µM
- AC50 [6]: active: 35.3 µM and active: 29.4 µM
- outcome [7]: inactive
- AC50 [8]: active: 67.3 µM and active: 67.5 µM

Compound: CC(C)OP(=O)(OC(C)C)SCCNS(=O)(=O)c1ccccc1
- outcome [1]: inactive
- AC50 [2]: active: 50 µM
- outcome [3]: inactive
- outcome [4]: inactive
- AC50 [5]: active: 29.7 µM
- AC50 [6]: active: 71.3 µM
- outcome [8]: inactive

Compound: CN(C(=O)Cc1cccc2occc12)[C@H]1CC[C@@]2(CCCO2)C[C@@H]1N1CCCC1
- AC50 [1]: active: 1.98 µM
- AC50 [2]: active: 10 µM
- outcome [3]: inactive
- outcome [4]: inactive
- outcome [5]: inactive
- AC50 [6]: active: 10 µM
- outcome [7]: inactive
- outcome [8]: inactive
- outcome [9]: inactive

Compound: O=C1C2CC=CCC2C(=O)N1SC(Cl)(Cl)C(Cl)Cl (configuration not stated)
- AC50 (DIO2 (gene 1734)): active: 50.4 µM
- outcome [7]: inactive
- outcome [9]: inactive

Source: PubChem BioAssay (EPA / NIEHS)
